scFv variants of Ab-95 (light chain) against a SARS-CoV-2 spike peptide

Values reported by Engelhart et al. 2022, doi:10.1038/s41597-022-01779-4 (FLAb copy).

Binding partner: SARS-CoV-2 spike HR2 peptide, sequence PDVDLGDISGINAS.

Ab-95 is the parent antibody, in scFv form: VH, then three GGGGS repeats, then VL. The heavy chain is unchanged in all variants.
VH: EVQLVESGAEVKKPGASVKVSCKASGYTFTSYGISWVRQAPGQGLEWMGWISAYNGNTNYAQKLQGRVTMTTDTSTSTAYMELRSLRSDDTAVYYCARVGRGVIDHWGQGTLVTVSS
VL: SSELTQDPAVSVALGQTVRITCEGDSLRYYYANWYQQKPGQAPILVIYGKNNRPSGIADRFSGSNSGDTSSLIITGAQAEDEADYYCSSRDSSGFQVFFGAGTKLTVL

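The parent was found by panning a naive human phage display library on the peptide. AAYL52 was designed without a model: most single CDR substitutions and a random sample of double and triple ones. The scFvs were displayed on barcoded MATa yeast, the peptide on MATalpha yeast. Binding brings cells together so that they mate, and sequencing counts the barcode pairs among the diploids. The ratio of observed to expected reads was calibrated, replicate by replicate, on BCL2-family standards whose Kd was known from biolayer interferometry. There are three technical replicates.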

Variants are written as CDR1, CDR2 and CDR3 of the light chain (limits as in the source). Parent: EGDSLRYYYAN, GKNNRPS, SSRDSSGFQVF.
Affinities are written as log10 Kd with Kd in nM; a lower number is a better binder.
The mean shown is taken over the replicates in which the pair was detected.
A pair that was not seen in that replicate is written "nd"; this usually means weak binding, but a binder can also be missed.
As a blank, each scFv also met three strains without target: over library AAYL52, 28% of these pairings were detected, typically at 3.91 and seldom below 2.90. Also given: how often the same scFv was detected with the empty control strains, with their mean in brackets.

| CDR-L1 | CDR-L2 | CDR-L3 | log10 Kd (nM) by replicate | mean log10 Kd (nM) | control signals |
|---|---|---|---|---|---|
| EGDSLRYLYAN | GKNNRPS | DNRDSSGFQVF | 2.60 2.11 2.32 | 2.34 | 3/9 (3.21) |
| EPDSLRYYYAN | GKNNRPS | SSRQSSNFQVF | nd nd 4.90 | 4.90 | 2/9 (3.77) |
| EGDSLRYYYAN | GKNIRPS | SSRDYSGFQYF | 4.51 nd 3.71 | 4.11 | 1/9 (4.65) |
| RGDSWRYYCAN | GKNNRPS | SSRDSSGFQVF | 2.92 2.95 3.69 | 3.19 | 0/9 |
| EGDYLRYYYAN | GKNNRPS | SSRDSSGFQVF | 2.09 1.57 0.99 | 1.55 | 2/9 (3.46) |
| EGDSARYYYAN | GKNNRPS | SSVDSSGFYVF | nd nd nd | nd | 0/9 |
| EGDSLRYYYAN | GKNNRPS | SSRDHSGFQVA | 2.71 2.59 2.07 | 2.46 | 1/9 (3.47) |
| LGDSLWYYYAN | GKNNRPS | SSRDSAGFQVF | 3.85 3.54 nd | 3.69 | 4/9 (4.09) |
| EGHSKRYYYAN | GKNNRPS | SSRDSSGFQVF | nd 3.09 3.71 | 3.40 | 1/9 (3.93) |
| EGDSLQYYYYN | TKNNRPS | SSRDSSGFQVF | nd 5.02 nd | 5.02 | 3/9 (3.27) |
| EGSSLRYYYAN | GKNNRPS | SHRESSGFQVF | nd nd nd | nd | 0/9 |
| EGSQLRYYYAN | GKNNRPS | SSRDVSGFQVF | 3.26 3.24 3.00 | 3.17 | 4/9 (4.10) |
| EGDSLDYYYAN | GKNNRPS | FSADSSGFQVF | 3.42 nd nd | 3.42 | 2/9 (3.30) |
| AGDSLRYYYAN | GGNNRTS | SSRDSSGFQVF | 2.05 2.28 2.16 | 2.16 | 1/9 (4.68) |
| EGDSLEYYKAN | GKNNRPS | SSRDSSLFQVF | 3.20 nd nd | 3.20 | 1/9 (1.81) |
| EGDYLRYYRAN | GKNNRPS | SSRDMSGFQVF | 2.85 3.57 nd | 3.21 | 1/9 (4.57) |
| EGDKHRYYYAN | GKNRRPS | SSRDSSGFQVF | 3.15 nd nd | 3.15 | 2/9 (3.19) |
| EGDSLRYYYWN | GKNNRPS | SSRQSSGFAVF | 3.81 3.50 nd | 3.65 | 3/9 (3.00) |
| PGDSIYYYYAN | GKNNRPS | SSRDSSGFQVF | 4.09 nd nd | 4.09 | 2/9 (4.06) |
| EGDHLRYRYAN | GKNNRPS | SSRDSYGFQVF | 2.55 2.66 2.17 | 2.46 | 0/9 |
| QGDSLRYYYAN | GKNNRPS | VSRDSSGFQVQ | 4.55 2.20 2.46 | 3.07 | 1/9 (2.96) |
| EGDSLVYYYAN | GGNNRVS | SSRDSSGFQVF | 2.91 2.70 2.24 | 2.62 | 4/9 (4.27) |
| ETESLRYYYAN | GKNNRPS | SSRDSWGFQVF | 3.58 4.24 3.22 | 3.68 | 6/9 (3.96) |
| EGDSLRDYYAN | GQNNRPS | SSRRSSGFQVF | 2.76 2.35 1.37 | 2.16 | 3/9 (3.69) |
| EGDSLRYYYAN | IKNNRPS | SSRDQSGFQVF | 4.55 3.62 nd | 4.09 | 1/9 (2.35) |
| EGDSLRYYYAN | GKNNGPS | SFRDSSGFMVF | 5.10 4.50 3.54 | 4.38 | 5/9 (4.13) |
| EQDSLRYYYAN | IKNNRPF | SSRDSSGFQVF | nd nd nd | nd | 1/9 (3.86) |
| ESDSLRYLYAN | GKNNRPS | SSRDSSGGQVF | 3.83 3.55 3.88 | 3.75 | 3/9 (4.26) |
| EGDSLRYYYAI | GVANRPS | SSRDSSGFQVF | 5.29 nd 4.03 | 4.66 | 2/9 (4.36) |
| EGDFLRYYYAN | GKNMRPS | SSRDSSGFQVF | 3.26 2.62 3.67 | 3.18 | 2/9 (4.31) |
| EGDSLRYYYAH | GKNNRTS | SSRDSSGFEVF | nd nd 2.90 | 2.90 | 1/9 (3.28) |
| EGDSLKEYYAN | GHNNRPS | SSRDSSGFQVF | 2.06 2.49 1.73 | 2.10 | 1/9 (3.04) |
| EGDSLMYYHAN | GKNNRPS | SCRDSSGFQVF | 1.84 2.07 2.06 | 1.99 | 1/9 (5.62) |
| EGDSLRYYYAN | GKNNRPS | SSRHITGFQVF | 2.30 2.27 2.19 | 2.26 | 2/9 (3.28) |
| AGDDLRYYYAN | GKNFRPS | SSRDSSGFQVF | 2.69 2.46 2.01 | 2.39 | 1/9 (4.89) |
| EGDSLRYYVAN | GKNNRPR | SSRDSSGFGVF | 3.51 3.89 4.50 | 3.97 | 4/9 (3.83) |
| EGDSLRNYYAN | GWNNRPS | SSGDSSGFQVF | 2.87 3.21 2.73 | 2.93 | 3/9 (3.95) |
| EGTCLRYYYAN | GKNNRDS | SSRDSSGFQVF | 3.64 nd nd | 3.64 | 2/9 (4.08) |

Repeated from above, the 4 best binders with a signal in all replicates:

CDR-L1	CDR-L2	CDR-L3	log10 Kd (nM) by replicate	mean log10 Kd (nM)	control signals
EGDYLRYYYAN	GKNNRPS	SSRDSSGFQVF	2.09 1.57 0.99	1.55	2/9 (3.46)
EGDSLMYYHAN	GKNNRPS	SCRDSSGFQVF	1.84 2.07 2.06	1.99	1/9 (5.62)
EGDSLKEYYAN	GHNNRPS	SSRDSSGFQVF	2.06 2.49 1.73	2.10	1/9 (3.04)
EGDSLRDYYAN	GQNNRPS	SSRRSSGFQVF	2.76 2.35 1.37	2.16	3/9 (3.69)

For reference, the parent read 2.31 as the reference entry and 2.25 as a member of this library.